Data on four compounds can be found in paper PMC11997985, “Synthesis and In Vitro Profiling of Psilocin Derivatives: Improved Stability and Synthetic Properties” (Journal of Medicinal Chemistry, 2025).

The nature of data set [1]: Forced degradation of psilocin salts, base (0.10 M NaOH). The settings on record: after 24 h, RT.
Data set [2] in a line: Photolytic degradation of psilocin salts. The following applies: 12900 lx, RT, water:acetonitrile 1:1.
The nature of data set [3]: Forced degradation of psilocin salts, oxidative (0.30% H2O2). The following applies: 0.30% H2O2, after 24 h, RT.
Data set [4] in a line: Thermal degradation of psilocin salts at 60 °C. The settings on record: water:acetonitrile 1:1.

Molecules are shown by their SMILES.

For the compound `CN(C)CCc1c[nH]c2cccc(O)c12.Cl` [Compound 9a], the color result was “black” in data set [1] and “pink tint” in data set [3]. Moreover, the “color (24 h)” value is listed as “gray” in data set [2] and “black” in data set [4].

Regarding `CN(C)CCc1c[nH]c2cccc(O)c12.O=C(O)c1ccccc1` [Compound 9c], the color entry was “black” in data set [1] and “brown tint” in data set [3]. Also, the figures for the “color (24 h)” value in data set [2] and in data set [4] were “brown” and “black”, respectively.

As for `CN(C)CCc1c[nH]c2cccc(O)c12.O=P(O)(O)O` [Compound 9e], the color result is listed as “black” in data set [1] and “gray” in data set [3]. The “color (24 h)” value in data set [2] is listed as “gray”; in data set [4], “black”.

Take `CN(C)CCc1c[nH]c2cccc(O)c12.O=C(O)C(F)(F)F` [Compound 9f]: the color entry was “black” in data set [1] and “yellow” in data set [3]. The “color (24 h)” value in data set [2] and in data set [4] was “black” throughout.
